According to PubChem BioAssay AID1777 (Sanford-Burnham Center for Chemical Genomics, 2009):
Only a part is listed here, and it is no random draw. Entries with a potency or affinity are not part of this list. Activity calls are given as the source filed them. Cut-off read from the data, not from the text of the source: active = activation above about 50% (passing the limit was not always enough); inactive = the rest.

Amino acid sequences for entries named in this document (tags omitted).
UniProt P41145, whole entry: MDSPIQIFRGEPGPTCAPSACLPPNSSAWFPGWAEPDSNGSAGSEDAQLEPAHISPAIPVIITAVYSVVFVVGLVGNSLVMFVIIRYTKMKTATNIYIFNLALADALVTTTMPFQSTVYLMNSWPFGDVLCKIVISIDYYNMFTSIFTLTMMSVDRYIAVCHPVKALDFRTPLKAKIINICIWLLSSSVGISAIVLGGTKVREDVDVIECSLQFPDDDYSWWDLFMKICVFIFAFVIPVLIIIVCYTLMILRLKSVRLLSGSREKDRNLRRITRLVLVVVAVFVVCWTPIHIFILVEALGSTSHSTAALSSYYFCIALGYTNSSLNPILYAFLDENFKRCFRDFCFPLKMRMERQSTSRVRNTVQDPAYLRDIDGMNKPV

target: Kappa-type opioid receptor (Homo sapiens) (UniProt P41145); assay: KOR agonists, beta-arrestin recruitment, primary screen, cell-based, luminescence, uHTS (AID 1777); details: at 10 µM, hits give high values

For `Cc1n[nH]c(C)c1S(=O)(=O)N1CCC(C(=O)N2CCn3c2nc2ccccc23)CC1`, which activation is on record?
The activation was inactive: -12.8%.
